Results as given in ChEMBL document CHEMBL1148511, “Novel 5-azaindole factor VIIa inhibitors” (Bioorg Med Chem Lett, 2006).

Sequences of proteins named here, by UniProt entry; tags and fusion partners are left off. A change or cut given only in a name is not applied to a line headed by its entry.
UniProt P08709: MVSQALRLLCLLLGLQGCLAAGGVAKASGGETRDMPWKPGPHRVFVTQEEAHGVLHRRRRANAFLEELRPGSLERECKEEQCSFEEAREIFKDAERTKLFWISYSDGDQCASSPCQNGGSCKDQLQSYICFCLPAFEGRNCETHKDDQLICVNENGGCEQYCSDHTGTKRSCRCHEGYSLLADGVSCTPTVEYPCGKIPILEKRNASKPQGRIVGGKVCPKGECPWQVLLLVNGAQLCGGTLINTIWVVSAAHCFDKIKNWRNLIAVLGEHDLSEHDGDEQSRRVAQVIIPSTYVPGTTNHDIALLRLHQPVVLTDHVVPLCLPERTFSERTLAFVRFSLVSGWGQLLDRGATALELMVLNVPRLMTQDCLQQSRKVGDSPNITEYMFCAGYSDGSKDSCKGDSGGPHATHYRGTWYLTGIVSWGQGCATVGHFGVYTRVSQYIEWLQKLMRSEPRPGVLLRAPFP
UniProt P13726: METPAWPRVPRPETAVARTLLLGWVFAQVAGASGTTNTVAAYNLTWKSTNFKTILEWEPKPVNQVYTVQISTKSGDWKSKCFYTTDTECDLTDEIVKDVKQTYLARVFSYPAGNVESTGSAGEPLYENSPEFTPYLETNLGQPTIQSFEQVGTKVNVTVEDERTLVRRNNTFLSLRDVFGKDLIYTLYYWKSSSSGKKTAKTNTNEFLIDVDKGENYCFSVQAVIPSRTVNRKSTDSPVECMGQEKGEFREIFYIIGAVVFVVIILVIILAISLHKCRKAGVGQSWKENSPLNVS
UniProt P00742, whole entry, looked up: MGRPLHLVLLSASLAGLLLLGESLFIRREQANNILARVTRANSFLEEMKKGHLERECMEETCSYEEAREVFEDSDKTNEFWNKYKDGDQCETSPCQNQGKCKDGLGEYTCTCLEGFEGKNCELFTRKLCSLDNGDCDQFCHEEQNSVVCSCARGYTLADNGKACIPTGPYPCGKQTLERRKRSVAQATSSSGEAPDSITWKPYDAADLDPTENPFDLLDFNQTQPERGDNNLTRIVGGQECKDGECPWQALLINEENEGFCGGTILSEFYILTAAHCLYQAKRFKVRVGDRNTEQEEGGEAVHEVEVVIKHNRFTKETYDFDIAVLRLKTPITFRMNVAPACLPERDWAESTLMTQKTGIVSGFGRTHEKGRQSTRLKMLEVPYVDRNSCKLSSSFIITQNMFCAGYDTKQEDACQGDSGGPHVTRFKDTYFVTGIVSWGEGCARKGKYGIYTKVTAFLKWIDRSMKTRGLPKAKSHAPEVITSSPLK

Key:
[1] = biological target: Thrombin and coagulation factor VII (Homo sapiens) (UniProt P00734+P08709); assay: Selectivity for F7a/TF over F2a; format: protein assay
How it was run: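 FVIIa (7 nM) with soluble tissue factor (11 nM) was run in 1.5 mM EDTA. Thrombin (12.7 nM) was run in 1 mM EDTA with Tosyl-Gly-Pro-Lys-pNA at Km. Hydrolysis was followed at 405 nm, and apparent Ki came from a Morrison equation fit.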

[2] = biological target: Coagulation factor VII/tissue factor (Homo sapiens) (UniProt P08709+P13726); assay: Selectivity for F7a/TF over trypsin; format: protein-complex assay
How it was run: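 Trypsin (10 nM) was tested without CaCl2, using Tosyl-Gly-Pro-Lys-pNA at Km. Readout was kinetic A405, and Ki was fitted with the Morrison tight-binding equation.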

[3] = biological target: Coagulation factor VII and X (Homo sapiens) (UniProt P00742+P08709); assay: Selectivity for F7a/TF over F10a; format: protein assay
How it was run: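 Reactions were started with pNA substrate at Km and read as A405 over time. Ki was fitted with the Morrison tight-binding equation.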

Ratio Ki [1]: 89 | Ratio Ki [2]: 58 | Ratio Ki [3]: 156
SMILES: NC(=O)NCc1cccc(-c2cccc(-c3cc4c[nH]ccc-4n3)c2O)c1
